Values of other authors in paper PMC7640639 (Journal of medicinal chemistry, 2019).

Amino acid sequences for entries named in this document (tags omitted).
UniProt P21554, whole entry: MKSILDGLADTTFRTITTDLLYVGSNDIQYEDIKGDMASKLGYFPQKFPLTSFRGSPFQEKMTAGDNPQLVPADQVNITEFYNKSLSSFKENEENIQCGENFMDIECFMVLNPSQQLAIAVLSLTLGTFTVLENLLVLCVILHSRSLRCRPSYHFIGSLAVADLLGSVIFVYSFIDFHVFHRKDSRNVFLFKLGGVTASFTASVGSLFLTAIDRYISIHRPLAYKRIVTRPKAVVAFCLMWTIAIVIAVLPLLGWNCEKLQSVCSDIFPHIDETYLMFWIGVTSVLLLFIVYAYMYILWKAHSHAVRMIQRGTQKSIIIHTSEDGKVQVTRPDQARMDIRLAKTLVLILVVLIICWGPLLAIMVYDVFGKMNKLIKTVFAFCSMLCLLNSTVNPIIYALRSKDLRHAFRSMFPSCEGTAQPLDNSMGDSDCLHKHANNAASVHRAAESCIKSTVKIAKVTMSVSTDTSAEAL

Molecular target: hCB1R (Homo sapiens, UniProt P21554)
Details: read-out: Ki hCB1R; cited from earlier work

Compound: Cc1ccc(Cn2nc(C(=O)N[C@@H]3C(C)(C)[C@@H]4CC[C@@]3(C)C4)cc2-c2ccc(Cl)c(C)c2)cc1 [SR-144,528]
- Ki: 264 nM
